# Like-named read-outs stand apart in the source and are kept apart here.
# By UniProt entry, the sequences of proteins in these tests, tags left out. Where a name states a change or a piece, a line headed by the entry shows the natural chain unless it says otherwise. Chains listed by the source or under a name are the forms on record and can include a tag or linker. Residues count along the entry.
# UniProt P36544, 23-229 with tags or gaps L131G/M226I/Q139L/T225I/Y217F limits assumed: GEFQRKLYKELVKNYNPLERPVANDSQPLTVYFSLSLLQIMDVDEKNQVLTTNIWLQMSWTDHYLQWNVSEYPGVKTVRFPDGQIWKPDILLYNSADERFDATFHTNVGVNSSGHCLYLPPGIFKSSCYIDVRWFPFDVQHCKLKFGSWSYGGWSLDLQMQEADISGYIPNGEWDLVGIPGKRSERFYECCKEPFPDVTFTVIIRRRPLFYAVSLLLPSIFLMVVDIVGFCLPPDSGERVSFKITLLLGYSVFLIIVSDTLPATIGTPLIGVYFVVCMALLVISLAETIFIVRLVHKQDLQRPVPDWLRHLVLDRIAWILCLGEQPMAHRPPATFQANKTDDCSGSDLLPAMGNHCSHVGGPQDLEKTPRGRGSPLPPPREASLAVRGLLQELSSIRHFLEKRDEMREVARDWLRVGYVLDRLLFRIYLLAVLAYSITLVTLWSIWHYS
# UniProt P36544, 23-229 with tags or gaps L131G/M226I/Q139L/T225I/W171F limits assumed: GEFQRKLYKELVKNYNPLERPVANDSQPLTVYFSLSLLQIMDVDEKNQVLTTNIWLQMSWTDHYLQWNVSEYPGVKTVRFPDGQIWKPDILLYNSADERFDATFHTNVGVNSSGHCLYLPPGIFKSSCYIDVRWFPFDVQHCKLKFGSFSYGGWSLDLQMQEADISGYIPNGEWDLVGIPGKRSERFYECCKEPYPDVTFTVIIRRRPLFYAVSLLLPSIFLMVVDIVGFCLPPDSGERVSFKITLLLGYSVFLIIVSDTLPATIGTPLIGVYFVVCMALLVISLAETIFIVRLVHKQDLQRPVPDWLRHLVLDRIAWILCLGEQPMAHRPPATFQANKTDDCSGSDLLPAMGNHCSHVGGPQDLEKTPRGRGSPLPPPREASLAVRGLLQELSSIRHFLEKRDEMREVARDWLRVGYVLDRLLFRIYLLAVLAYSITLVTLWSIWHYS
# UniProt P36544, 23-229 with tags or gaps L131G/M226I/Q139L/T225I/W171Y limits assumed: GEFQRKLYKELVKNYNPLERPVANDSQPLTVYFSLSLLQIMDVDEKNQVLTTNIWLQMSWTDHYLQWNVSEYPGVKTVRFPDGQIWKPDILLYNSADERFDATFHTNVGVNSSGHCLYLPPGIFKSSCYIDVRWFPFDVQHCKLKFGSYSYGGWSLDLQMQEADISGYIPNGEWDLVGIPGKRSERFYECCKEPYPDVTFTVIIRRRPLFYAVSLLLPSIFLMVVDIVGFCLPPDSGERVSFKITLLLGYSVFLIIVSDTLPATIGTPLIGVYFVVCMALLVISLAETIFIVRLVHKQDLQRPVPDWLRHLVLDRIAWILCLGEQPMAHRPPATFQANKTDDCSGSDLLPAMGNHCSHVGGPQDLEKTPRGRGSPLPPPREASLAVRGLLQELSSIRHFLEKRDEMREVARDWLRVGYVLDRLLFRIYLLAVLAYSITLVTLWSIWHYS
# UniProt P36544, 23-229 with tags or gaps L131G/M226I/Q139L/T225I/Y217A limits assumed: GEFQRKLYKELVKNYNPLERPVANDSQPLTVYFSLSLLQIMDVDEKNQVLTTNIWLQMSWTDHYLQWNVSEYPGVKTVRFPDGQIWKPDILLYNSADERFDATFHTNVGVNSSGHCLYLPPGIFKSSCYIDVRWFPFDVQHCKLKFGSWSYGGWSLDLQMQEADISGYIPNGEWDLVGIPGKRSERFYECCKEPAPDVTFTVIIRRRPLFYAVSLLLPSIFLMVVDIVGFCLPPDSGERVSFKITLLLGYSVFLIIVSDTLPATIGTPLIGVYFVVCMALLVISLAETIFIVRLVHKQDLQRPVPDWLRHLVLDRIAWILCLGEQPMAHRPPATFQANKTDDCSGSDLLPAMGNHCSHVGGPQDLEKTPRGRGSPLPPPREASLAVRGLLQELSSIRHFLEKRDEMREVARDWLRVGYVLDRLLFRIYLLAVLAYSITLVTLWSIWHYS
# UniProt P36544, 23-229 with tags or gaps L131G/M226I/Q139L/T225I/Y217H limits assumed: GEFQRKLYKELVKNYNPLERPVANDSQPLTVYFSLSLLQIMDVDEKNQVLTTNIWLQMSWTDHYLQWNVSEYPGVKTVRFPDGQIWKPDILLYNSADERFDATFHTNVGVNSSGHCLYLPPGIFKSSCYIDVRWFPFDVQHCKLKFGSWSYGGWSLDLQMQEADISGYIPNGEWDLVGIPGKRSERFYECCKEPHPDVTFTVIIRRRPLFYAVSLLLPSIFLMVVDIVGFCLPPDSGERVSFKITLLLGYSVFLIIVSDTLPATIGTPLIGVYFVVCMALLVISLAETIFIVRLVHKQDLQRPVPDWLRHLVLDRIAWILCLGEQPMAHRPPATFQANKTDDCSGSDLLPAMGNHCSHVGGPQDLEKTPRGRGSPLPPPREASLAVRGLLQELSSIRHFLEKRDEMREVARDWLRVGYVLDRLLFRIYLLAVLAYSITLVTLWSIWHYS
# UniProt P36544, 23-229 with tags or gaps L131G/M226I/Q139L/T225I/Y217N limits assumed: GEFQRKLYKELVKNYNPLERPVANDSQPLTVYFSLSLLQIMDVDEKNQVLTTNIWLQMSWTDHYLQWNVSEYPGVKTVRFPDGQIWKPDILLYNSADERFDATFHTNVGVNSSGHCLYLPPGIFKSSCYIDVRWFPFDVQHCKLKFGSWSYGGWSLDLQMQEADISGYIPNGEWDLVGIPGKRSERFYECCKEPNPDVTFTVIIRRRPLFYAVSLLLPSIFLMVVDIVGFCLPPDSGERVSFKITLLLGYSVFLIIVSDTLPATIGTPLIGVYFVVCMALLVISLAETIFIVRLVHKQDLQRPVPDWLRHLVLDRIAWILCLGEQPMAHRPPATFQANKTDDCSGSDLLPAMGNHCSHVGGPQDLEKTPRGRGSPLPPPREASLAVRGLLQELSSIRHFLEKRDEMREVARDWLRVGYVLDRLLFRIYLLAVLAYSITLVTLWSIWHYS
# UniProt P36544, 23-229 with tags or gaps L131G/M226I/Q139L/T225I/Y217V limits assumed: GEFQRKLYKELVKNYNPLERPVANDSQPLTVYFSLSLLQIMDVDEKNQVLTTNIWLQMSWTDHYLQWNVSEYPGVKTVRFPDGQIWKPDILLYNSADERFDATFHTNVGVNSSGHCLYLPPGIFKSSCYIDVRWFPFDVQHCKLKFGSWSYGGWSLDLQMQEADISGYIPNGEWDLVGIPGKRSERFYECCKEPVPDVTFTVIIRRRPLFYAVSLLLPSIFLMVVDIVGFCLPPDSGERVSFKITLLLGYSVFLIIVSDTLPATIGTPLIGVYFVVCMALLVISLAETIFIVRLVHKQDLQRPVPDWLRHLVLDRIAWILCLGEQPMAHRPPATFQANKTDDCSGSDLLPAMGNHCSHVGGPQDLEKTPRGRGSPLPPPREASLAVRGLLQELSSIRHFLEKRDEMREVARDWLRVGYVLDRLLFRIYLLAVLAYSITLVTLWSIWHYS
# UniProt P36544, 23-229 with tags or gaps H163A/L131G/M226I/Q139L/T225I/Y217F limits assumed: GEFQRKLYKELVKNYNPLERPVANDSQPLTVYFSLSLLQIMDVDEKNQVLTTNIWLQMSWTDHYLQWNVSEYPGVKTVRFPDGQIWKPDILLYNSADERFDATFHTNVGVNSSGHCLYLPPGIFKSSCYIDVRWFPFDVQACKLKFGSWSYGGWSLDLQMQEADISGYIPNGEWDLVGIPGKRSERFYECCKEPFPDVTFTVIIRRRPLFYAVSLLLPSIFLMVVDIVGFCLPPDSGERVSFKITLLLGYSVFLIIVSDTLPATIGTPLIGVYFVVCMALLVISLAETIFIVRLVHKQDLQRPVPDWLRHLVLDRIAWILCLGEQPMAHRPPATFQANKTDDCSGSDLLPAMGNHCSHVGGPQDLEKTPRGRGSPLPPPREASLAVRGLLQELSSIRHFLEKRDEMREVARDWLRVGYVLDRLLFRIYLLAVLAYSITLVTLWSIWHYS
# UniProt P36544, 23-229 with tags or gaps H163D/L131G/M226I/Q139L/T225I/Y217F limits assumed: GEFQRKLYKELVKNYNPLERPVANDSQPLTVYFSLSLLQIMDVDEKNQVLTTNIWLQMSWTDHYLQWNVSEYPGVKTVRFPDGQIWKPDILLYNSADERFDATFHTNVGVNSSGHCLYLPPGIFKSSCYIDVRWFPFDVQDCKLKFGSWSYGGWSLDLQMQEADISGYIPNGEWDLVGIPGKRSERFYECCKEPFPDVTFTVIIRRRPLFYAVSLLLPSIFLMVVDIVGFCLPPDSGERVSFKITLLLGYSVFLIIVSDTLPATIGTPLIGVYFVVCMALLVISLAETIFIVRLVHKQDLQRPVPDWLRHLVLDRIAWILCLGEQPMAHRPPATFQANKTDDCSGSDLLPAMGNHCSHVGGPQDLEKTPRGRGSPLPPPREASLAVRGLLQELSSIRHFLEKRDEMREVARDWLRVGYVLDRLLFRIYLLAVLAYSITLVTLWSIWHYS
# UniProt P36544, 23-229 with tags or gaps H163F/L131G/M226I/Q139L/T225I/Y217F limits assumed: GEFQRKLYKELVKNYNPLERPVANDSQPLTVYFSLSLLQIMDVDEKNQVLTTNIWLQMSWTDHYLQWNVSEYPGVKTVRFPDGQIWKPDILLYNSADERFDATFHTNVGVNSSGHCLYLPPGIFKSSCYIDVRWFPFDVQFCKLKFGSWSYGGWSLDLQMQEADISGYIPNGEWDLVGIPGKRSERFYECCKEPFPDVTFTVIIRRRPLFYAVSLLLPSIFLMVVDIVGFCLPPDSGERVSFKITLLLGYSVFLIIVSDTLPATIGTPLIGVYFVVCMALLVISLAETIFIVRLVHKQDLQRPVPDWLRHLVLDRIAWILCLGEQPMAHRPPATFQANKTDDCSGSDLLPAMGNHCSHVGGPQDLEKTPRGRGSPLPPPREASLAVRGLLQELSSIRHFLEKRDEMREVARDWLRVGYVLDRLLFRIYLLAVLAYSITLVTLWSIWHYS
# UniProt P36544, 23-229 with tags or gaps H163K/L131G/M226I/Q139L/T225I/Y217F limits assumed: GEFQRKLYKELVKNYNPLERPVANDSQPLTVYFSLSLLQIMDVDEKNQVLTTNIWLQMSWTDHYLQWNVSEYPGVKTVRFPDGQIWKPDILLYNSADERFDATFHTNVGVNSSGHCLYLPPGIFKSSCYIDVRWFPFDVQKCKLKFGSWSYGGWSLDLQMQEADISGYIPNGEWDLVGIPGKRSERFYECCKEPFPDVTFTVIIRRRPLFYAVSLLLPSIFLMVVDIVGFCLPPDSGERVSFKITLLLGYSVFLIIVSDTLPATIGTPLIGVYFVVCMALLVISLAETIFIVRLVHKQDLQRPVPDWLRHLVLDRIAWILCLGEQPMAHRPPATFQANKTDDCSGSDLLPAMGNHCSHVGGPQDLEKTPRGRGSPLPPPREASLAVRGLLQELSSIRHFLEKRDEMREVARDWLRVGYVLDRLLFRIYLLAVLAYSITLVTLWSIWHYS
# UniProt P36544, 23-229 with tags or gaps H163N/L131G/M226I/Q139L/T225I/Y217F limits assumed: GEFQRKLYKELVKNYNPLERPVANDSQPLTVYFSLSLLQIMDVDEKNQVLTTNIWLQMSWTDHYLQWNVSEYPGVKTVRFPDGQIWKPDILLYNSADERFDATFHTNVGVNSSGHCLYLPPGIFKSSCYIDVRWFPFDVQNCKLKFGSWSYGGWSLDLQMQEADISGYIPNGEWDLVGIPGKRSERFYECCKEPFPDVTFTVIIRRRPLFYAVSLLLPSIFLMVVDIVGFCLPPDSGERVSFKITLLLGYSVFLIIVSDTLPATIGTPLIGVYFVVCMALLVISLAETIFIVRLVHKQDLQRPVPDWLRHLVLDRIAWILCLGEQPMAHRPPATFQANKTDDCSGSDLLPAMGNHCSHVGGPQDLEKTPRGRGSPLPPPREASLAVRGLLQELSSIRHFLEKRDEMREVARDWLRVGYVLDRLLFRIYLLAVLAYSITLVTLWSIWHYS
# UniProt P36544, 23-229 with tags or gaps H163R/L131G/M226I/Q139L/T225I/Y217F limits assumed: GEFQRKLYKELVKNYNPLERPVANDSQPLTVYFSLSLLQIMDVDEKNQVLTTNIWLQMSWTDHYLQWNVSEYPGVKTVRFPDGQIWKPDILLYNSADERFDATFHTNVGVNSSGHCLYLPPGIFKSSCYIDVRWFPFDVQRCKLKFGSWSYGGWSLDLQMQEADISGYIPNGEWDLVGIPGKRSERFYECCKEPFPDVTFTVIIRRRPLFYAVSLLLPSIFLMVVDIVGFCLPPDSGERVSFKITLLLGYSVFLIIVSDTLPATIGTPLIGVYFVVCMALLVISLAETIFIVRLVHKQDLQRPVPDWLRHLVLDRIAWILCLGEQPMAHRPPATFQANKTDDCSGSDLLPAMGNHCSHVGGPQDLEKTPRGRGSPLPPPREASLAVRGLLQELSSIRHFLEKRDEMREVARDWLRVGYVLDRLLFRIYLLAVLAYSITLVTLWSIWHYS
# UniProt P36544, 23-229 with tags or gaps H163S/L131G/M226I/Q139L/T225I/Y217F limits assumed: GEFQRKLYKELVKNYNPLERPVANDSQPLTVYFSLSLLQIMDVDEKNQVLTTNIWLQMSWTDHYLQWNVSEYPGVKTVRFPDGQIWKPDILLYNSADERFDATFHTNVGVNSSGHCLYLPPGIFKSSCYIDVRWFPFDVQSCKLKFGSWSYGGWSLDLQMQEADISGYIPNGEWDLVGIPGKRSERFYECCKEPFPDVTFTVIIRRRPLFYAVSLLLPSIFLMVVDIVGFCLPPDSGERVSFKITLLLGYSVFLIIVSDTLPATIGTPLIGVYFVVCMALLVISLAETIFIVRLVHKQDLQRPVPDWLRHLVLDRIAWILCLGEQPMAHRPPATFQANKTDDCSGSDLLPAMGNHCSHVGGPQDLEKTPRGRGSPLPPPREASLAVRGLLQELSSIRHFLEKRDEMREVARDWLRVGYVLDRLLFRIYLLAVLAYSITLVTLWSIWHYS
# How the values were obtained:
# [1] = biological target: α7-5HT3 L131G, Q139L, Y217H (Homo sapiens, UniProt P36544, L131G/M226I/Q139L/T225I/Y217H); assay: EC50 dose response, α7-5HT3 mutant; type: cell-based; conditions: read-out: EC50s (SEM) for additional mutations of α7^L131G, Q139L, Y217F -5HT3
# [2] = biological target: α7-5HT3 L131G, Q139L, Y217N (Homo sapiens, UniProt P36544, L131G/M226I/Q139L/T225I/Y217N); assay: EC50 dose response, α7-5HT3 mutant; type: cell-based; conditions: read-out: EC50s (SEM) for additional mutations of α7^L131G, Q139L, Y217F -5HT3
# [3] = biological target: α7-5HT3 L131G, Q139L, W171F (Homo sapiens, UniProt P36544, L131G/M226I/Q139L/T225I/W171F); assay: EC50 dose response, α7-5HT3 mutant; type: cell-based; conditions: read-out: EC50s (SEM) for additional mutations of α7^L131G, Q139L, Y217F -5HT3
# [4] = biological target: α7-5HT3 L131G, Q139L, Y217A (Homo sapiens, UniProt P36544, L131G/M226I/Q139L/T225I/Y217A); assay: EC50 dose response, α7-5HT3 mutant; type: cell-based; conditions: read-out: EC50s (SEM) for additional mutations of α7^L131G, Q139L, Y217F -5HT3
# [5] = biological target: α7-5HT3 L131G, Q139L, Y217V (Homo sapiens, UniProt P36544, L131G/M226I/Q139L/T225I/Y217V); assay: EC50 dose response, α7-5HT3 mutant; type: cell-based; conditions: read-out: EC50s (SEM) for additional mutations of α7^L131G, Q139L, Y217F -5HT3
# [6] = biological target: α7-5HT3 L131G, Q139L, W171Y (Homo sapiens, UniProt P36544, L131G/M226I/Q139L/T225I/W171Y); assay: EC50 dose response, α7-5HT3 mutant; type: cell-based; conditions: read-out: EC50s (SEM) for additional mutations of α7^L131G, Q139L, Y217F -5HT3
# [7] = biological target: PSAM4-5HT3 (α7-5HT3^L131G,Q139L,Y217F) (Homo sapiens, UniProt P36544, L131G/M226I/Q139L/T225I/Y217F); assay: EC50 dose response of LGIC ligands on PSAM4-5HT3; type: cell-based; conditions: read-out: EC50s (SEM) for additional mutations of α7^L131G, Q139L, Y217F -5HT3
# [8] = biological target: α7^L131G,Q139L,Y217F-5HT3 W156N (Homo sapiens, UniProt P36544, L131G/M226I/Q139L/T225I/W156N/Y217F); conditions: read-out: EC50s (SEM) for additional mutations of α7^L131G, Q139L, Y217F -5HT3; additional mutation W156N
# [9] = biological target: α7^L131G,Q139L,Y217F-5HT3 H163N (Homo sapiens, UniProt P36544, H163N/L131G/M226I/Q139L/T225I/Y217F); assay: EC50 dose response, PSAM4-5HT3 with additional mutations; type: cell-based; conditions: read-out: EC50s (SEM) for additional mutations of α7^L131G, Q139L, Y217F -5HT3; additional mutation H163N
# [10] = biological target: α7^L131G,Q139L,Y217F-5HT3 H163R (Homo sapiens, UniProt P36544, H163R/L131G/M226I/Q139L/T225I/Y217F); assay: as above; type: cell-based; conditions: read-out: EC50s (SEM) for additional mutations of α7^L131G, Q139L, Y217F -5HT3; additional mutation H163R
# [11] = biological target: α7^L131G,Q139L,Y217F-5HT3 H163S (Homo sapiens, UniProt P36544, H163S/L131G/M226I/Q139L/T225I/Y217F); assay: as above; type: cell-based; conditions: read-out: EC50s (SEM) for additional mutations of α7^L131G, Q139L, Y217F -5HT3; additional mutation H163S
# [12] = biological target: α7^L131G,Q139L,Y217F-5HT3 H163T, S172V (Homo sapiens, UniProt P36544, H163T/L131G/M226I/Q139L/S172V/T225I/Y217F); assay: as above; type: cell-based; conditions: read-out: EC50s (SEM) for additional mutations of α7^L131G, Q139L, Y217F -5HT3
# [13] = biological target: α7^L131G,Q139L,Y217F-5HT3 V154I, R155Y, W156N (Homo sapiens, UniProt P36544, L131G/M226I/Q139L/R155Y/T225I/V154I/W156N/Y217F); assay: as above; type: cell-based; conditions: read-out: EC50s (SEM) for additional mutations of α7^L131G, Q139L, Y217F -5HT3
# [14] = biological target: α7^L131G,Q139L,Y217F-5HT3 H163T, S172A (Homo sapiens, UniProt P36544, H163T/L131G/M226I/Q139L/S172A/T225I/Y217F); assay: as above; type: cell-based; conditions: read-out: EC50s (SEM) for additional mutations of α7^L131G, Q139L, Y217F -5HT3
# [15] = biological target: α7^L131G,Q139L,Y217F-5HT3 S172I (Homo sapiens, UniProt P36544, L131G/M226I/Q139L/S172I/T225I/Y217F); assay: as above; type: cell-based; conditions: read-out: EC50s (SEM) for additional mutations of α7^L131G, Q139L, Y217F -5HT3; additional mutation S172I
# [16] = biological target: α7^L131G,Q139L,Y217F-5HT3 H163T (Homo sapiens, UniProt P36544, H163T/L131G/M226I/Q139L/T225I/Y217F); assay: as above; type: cell-based; conditions: read-out: EC50s (SEM) for additional mutations of α7^L131G, Q139L, Y217F -5HT3; additional mutation H163T
# [17] = biological target: α7^L131G,Q139L,Y217F-5HT3 H163A (Homo sapiens, UniProt P36544, H163A/L131G/M226I/Q139L/T225I/Y217F); assay: as above; type: cell-based; conditions: read-out: EC50s (SEM) for additional mutations of α7^L131G, Q139L, Y217F -5HT3; additional mutation H163A
# [18] = biological target: α7^L131G,Q139L,Y217F-5HT3 V154I, R155Y, W156N, S172V (Homo sapiens, UniProt P36544, L131G/M226I/Q139L/R155Y/S172V/T225I/V154I/W156N/Y217F); assay: as above; type: cell-based; conditions: read-out: EC50s (SEM) for additional mutations of α7^L131G, Q139L, Y217F -5HT3
# [19] = biological target: α7^L131G,Q139L,Y217F-5HT3 V154I, R155Y, W156N, S172A (Homo sapiens, UniProt P36544, L131G/M226I/Q139L/R155Y/S172A/T225I/V154I/W156N/Y217F); assay: as above; type: cell-based; conditions: read-out: EC50s (SEM) for additional mutations of α7^L131G, Q139L, Y217F -5HT3
# [20] = biological target: α7^L131G,Q139L,Y217F-5HT3 H163F (Homo sapiens, UniProt P36544, H163F/L131G/M226I/Q139L/T225I/Y217F); assay: as above; type: cell-based; conditions: read-out: EC50s (SEM) for additional mutations of α7^L131G, Q139L, Y217F -5HT3; additional mutation H163F
# [21] = biological target: α7^L131G,Q139L,Y217F-5HT3 W156N, H163T (Homo sapiens, UniProt P36544, H163T/L131G/M226I/Q139L/T225I/W156N/Y217F); assay: as above; type: cell-based; conditions: read-out: EC50s (SEM) for additional mutations of α7^L131G, Q139L, Y217F -5HT3
# [22] = biological target: α7^L131G,Q139L,Y217F-5HT3 H163K (Homo sapiens, UniProt P36544, H163K/L131G/M226I/Q139L/T225I/Y217F); assay: as above; type: cell-based; conditions: read-out: EC50s (SEM) for additional mutations of α7^L131G, Q139L, Y217F -5HT3; additional mutation H163K
# [23] = biological target: α7^L131G,Q139L,Y217F-5HT3 S172V (Homo sapiens, UniProt P36544, L131G/M226I/Q139L/S172V/T225I/Y217F); assay: as above; type: cell-based; conditions: read-out: EC50s (SEM) for additional mutations of α7^L131G, Q139L, Y217F -5HT3; additional mutation S172V
# [24] = biological target: α7^L131G,Q139L,Y217F-5HT3 S172A (Homo sapiens, UniProt P36544, L131G/M226I/Q139L/S172A/T225I/Y217F); assay: as above; type: cell-based; conditions: read-out: EC50s (SEM) for additional mutations of α7^L131G, Q139L, Y217F -5HT3; additional mutation S172A
# [25] = biological target: α7^L131G,Q139L,Y217F-5HT3 H163D (Homo sapiens, UniProt P36544, H163D/L131G/M226I/Q139L/T225I/Y217F); assay: as above; type: cell-based; conditions: read-out: EC50s (SEM) for additional mutations of α7^L131G, Q139L, Y217F -5HT3; additional mutation H163D
# [26] = biological target: α7^L131G,Q139L,Y217F-5HT3 H163V (Homo sapiens, UniProt P36544, H163V/L131G/M226I/Q139L/T225I/Y217F); assay: as above; type: cell-based; conditions: read-out: EC50s (SEM) for additional mutations of α7^L131G, Q139L, Y217F -5HT3; additional mutation H163V
# [27] = biological target: α7^L131G,Q139L,Y217F-5HT3 V154L, R155Y, W156Q (Homo sapiens, UniProt P36544, L131G/M226I/Q139L/R155Y/T225I/V154L/W156Q/Y217F); assay: as above; type: cell-based; conditions: read-out: EC50s (SEM) for additional mutations of α7^L131G, Q139L, Y217F -5HT3
smiles,measurement,setting,value
Cn1c(=O)cnc2cc3c(cc21)C1CNCC3C1 (stereo not shown),EC50,[1],0.0122 µM
same,EC50,[2],> 0.1 µM
same,EC50,[3],> 0.1 µM
same,EC50,[4],0.022 µM
same,EC50,[5],> 0.1 µM
same,EC50,[6],> 0.1 µM
same,EC50,[7]; PSAM4-5HT3 (no additional mutation),0.0039 µM
same,EC50,"[7]; line L131G, Q139L, Y217F (same values as PSAM4-5HT3 line)",0.0039 µM
same,EC50,[8],0.011 µM
same,EC50,[9],0.0063 µM
same,EC50,[10],0.0072 µM
same,EC50,[11],0.0086 µM
same,EC50,[12],0.0054 µM
same,EC50,[13],0.0085 µM
same,EC50,[14],0.011 µM
same,EC50,[15],0.012 µM
same,EC50,[16],0.012 µM
same,EC50,[17],0.0051 µM
same,EC50,[18],0.025 µM
same,EC50,[19],0.015 µM
same,EC50,[20],0.0098 µM
same,EC50,[21],0.013 µM
same,EC50,[22],0.0086 µM
same,EC50,[23],0.0043 µM
same,EC50,[24],0.0064 µM
same,EC50,[25],0.012 µM
same,EC50,[26],0.0072 µM
same,EC50,[27],0.0126 µM

# From patent publication US20250145687A1, “MODIFIED LIGAND-GATED ION CHANNELS AND METHODS OF USE” (Howard Hughes Medical Institute, priority 2022, published 2025)
